The target of experiment [1] is T1, PPARγ LBD in complex with RXRα LBD (Homo sapiens, UniProt P37231).
T1 construct: His10-tag with TEV site (N, cleaved yes); made in house; host or cells: E. coli T7 express (co-expressed with GroEL/ES)
The experiment is described as follows: Heterodimer coactivator recruitment HTRF assay: CBP-1 recruitment by PPARγ LBD in complex with sGFP-RXRα LBD total mutant. The conditions noted are these: 100 nM PPARγ LBD, 2 μM sGFP-RXRα total mutant, read-out: Dimer recruitment, agonist mode, Potency (EC50). Format: biochemical. A general note: TR-FRET usually uses a lanthanide donor and a delayed reading to cut background.

The chains behind the UniProt entries cited, without tags or fusion partners. Residues count along the entry.
UniProt P37231, 234-505: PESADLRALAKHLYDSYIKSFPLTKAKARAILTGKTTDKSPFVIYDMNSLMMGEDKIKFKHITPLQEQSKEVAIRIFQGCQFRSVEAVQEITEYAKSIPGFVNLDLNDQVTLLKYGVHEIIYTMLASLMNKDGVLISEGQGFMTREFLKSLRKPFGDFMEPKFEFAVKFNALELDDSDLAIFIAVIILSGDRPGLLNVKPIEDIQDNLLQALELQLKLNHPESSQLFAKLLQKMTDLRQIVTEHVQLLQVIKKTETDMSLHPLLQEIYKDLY

A further experiment addresses PPARγ LBD (Homo sapiens, UniProt P37231). The experiment is described as follows: Monomer cofactor recruitment HTRF assay: CBP-1 recruitment by isolated sGFP-PPARγ LBD. Format: biochemical. Further details: His10-tag with TEV site (N, cleaved yes); made in house; host or cells: E. coli T7 express (co-expressed with GroEL/ES). As to conditions: 100 nM sGFP-PPARγ LBD, read-out: Monomer recruitment, agonist mode, Potency (EC50).

With GW1929, the half-maximal effective concentration (EC50) (usually the concentration that produces a half-maximal response) in experiment [1] turned out to be 87 ± 7 nM; on PPARγ LBD, 44 ± 3 nM.
